According to article PMC2578980 (The Yale Journal of Biology and Medicine, 1998):

Molecular target: T1, human CCK-BR (Homo sapiens, UniProt P32239)
T1 sequence (P32239 1-447): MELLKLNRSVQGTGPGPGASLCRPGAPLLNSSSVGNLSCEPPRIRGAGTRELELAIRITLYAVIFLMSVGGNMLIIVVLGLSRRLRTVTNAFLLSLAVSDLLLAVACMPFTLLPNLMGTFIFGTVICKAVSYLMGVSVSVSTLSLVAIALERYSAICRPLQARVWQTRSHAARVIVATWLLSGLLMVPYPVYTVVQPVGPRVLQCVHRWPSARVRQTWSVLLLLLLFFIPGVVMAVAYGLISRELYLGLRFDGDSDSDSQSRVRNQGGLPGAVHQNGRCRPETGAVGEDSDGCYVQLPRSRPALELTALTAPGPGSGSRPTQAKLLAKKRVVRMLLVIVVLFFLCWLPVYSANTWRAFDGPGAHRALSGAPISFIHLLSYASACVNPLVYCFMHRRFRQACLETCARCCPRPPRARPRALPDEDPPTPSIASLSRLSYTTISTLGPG
Test: Measurement of [Ca2+]i
Assay type: cell-based
Settings: COS-7 cells transiently expressing the CCK-BR

cholecystokinin octapeptide [CCK-8]
concentrations sufficient to fully stimulate Ca2+ release: nanomolar concentrations
